The test deals with MCF-7. As to the kind of experiment: cells. As to conditions: Homo sapiens, MCF7, 120 h, read-out: GI50 against MCF-7.

Usually GI50 stands for the concentration giving 50% growth inhibition.

As for `CC(=O)O[C@@H](C)/C=C\C(=O)N[C@@H]1C[C@H](C)[C@H](C/C=C(C)/C=C/[C@H]2OC(C)(C)C[C@@]3(CO3)[C@@H]2O)O[C@@H]1C` [meayamycin], the GI50 is 0.04 nM.
